Literature values as cited in patent US20140371254A1, “NOVEL TREATMENT OF GEFITINIB-RESISTANT NON-SMALL-CELL LUNG CANCER” (Macau University of Science and Technology, priority 2013, published 2014).

How the values were obtained:
Conditions in all cases: method not stated; cited from earlier work
[1] = tested on: H1650 (EGFR^Exon19 deletion)
H1975 (EGFR^L858R+T790M) = tested on: H1975 (EGFR^L858R+T790M)
A549 (EGFR^Wild type) = tested on: A549 (EGFR^Wild type)

For `COc1cc2ncnc(Nc3ccc(F)c(Cl)c3)c2cc1OCCCN1CCOCC1` [Gefitinib], the “Gefitinib Sensitivity” value [1] is listed as “Resistant”, the “Gefitinib Sensitivity” value (H1975 (EGFR^L858R+T790M)) is listed as “Resistant” and the “Gefitinib Sensitivity” value (A549 (EGFR^Wild type)) is listed as “Moderately”.
